Reference: PubChem BioAssay AID2642 (Johns Hopkins Ion Channel Center, 2010)
Only a part is listed here, and it is no random draw. Some structures show a salt or complex split into parts, the way the source records it. The source made the active and inactive calls.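 How the source made its calls: active means compounds whose thallium flux B-score, printed positive for inhibition, exceeds three library SD while starting fluorescence stays within three; inactive means the rest.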

By UniProt entry, the sequences of proteins in these tests, tags left out.
UniProt P51787, whole entry: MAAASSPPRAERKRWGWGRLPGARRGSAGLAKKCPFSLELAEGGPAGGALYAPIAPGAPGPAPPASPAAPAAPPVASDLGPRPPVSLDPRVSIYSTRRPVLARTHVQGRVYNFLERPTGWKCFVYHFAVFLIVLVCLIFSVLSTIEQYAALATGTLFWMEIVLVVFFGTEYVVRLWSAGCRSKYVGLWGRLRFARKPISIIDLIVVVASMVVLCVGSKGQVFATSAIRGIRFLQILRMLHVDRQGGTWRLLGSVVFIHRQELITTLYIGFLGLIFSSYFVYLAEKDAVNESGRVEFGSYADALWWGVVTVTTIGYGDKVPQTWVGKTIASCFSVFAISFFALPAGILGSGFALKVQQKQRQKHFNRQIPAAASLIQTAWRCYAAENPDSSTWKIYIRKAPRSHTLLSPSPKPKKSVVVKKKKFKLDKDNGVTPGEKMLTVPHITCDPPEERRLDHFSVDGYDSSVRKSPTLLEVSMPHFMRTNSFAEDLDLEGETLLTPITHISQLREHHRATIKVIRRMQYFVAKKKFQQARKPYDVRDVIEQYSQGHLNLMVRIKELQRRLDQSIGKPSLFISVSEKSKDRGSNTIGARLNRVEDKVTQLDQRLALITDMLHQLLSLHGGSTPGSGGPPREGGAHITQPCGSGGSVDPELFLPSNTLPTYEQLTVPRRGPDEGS

What follows are compounds tested against Potassium voltage-gated channel subfamily KQT member 1 (Homo sapiens) (UniProt P51787) (assay: inhibitors of human KCNQ1 channel, primary screen, cell-based, thallium flux, high-throughput (AID 2642;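 further: channel opened by potassium depolarization with thallium stimulus after 20 min compound exposure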)). Details: CHO-K1 KCNQ1, FluxOR thallium flux fluorescence, at 10 µM.
In the case of `COc1ccccc1OP(=O)(Nc1ccc(C)cn1)Oc1ccccc1OC`, the outcome is reported as “inactive”.
With `COc1ccc(OP(C)(=O)Nc2ccccn2)cc1` (stereo not given) the outcome was “inactive”.
`O=C(NC(Sc1ccncn1)C(Cl)(Cl)Cl)c1ccccc1` (stereo not given) was tested, and the outcome was “inactive”.
In the case of `Cc1c2non([O-])c-2c(C)[n+](=O)[n+]1[O-]`, the outcome is reported as “inactive”.
In the case of `Oc1ccccc1CNc1ccccn1`, the outcome is reported as “inactive”.
With `Cc1c(NP(C)(=O)Oc2ccc(C(C)C)cc2)c(=O)n(-c2ccccc2)n1C` (stereo not given) the outcome was “inactive”.
For `Nc1cc(N)c2nonc2c1[N+](=O)[O-]`, the outcome was “inactive”.
`CC(C)CC(=O)NC(Sc1ccc(Cl)cc1)C(Cl)(Cl)Cl` (stereo not given) was tested, and the outcome was “inactive”.
`O=[N+]([O-])c1cc([N+](=O)[O-])c(Nc2ccccn2)c([N+](=O)[O-])c1` was tested, and the outcome was “inactive”.
With `CCc1ccc(OP(C)(=O)O)cc1` the outcome was “inactive”.
In the case of `COc1ccccc1OP(C)(=O)Nc1ccc(C)cc1C` (stereo not given), the outcome is reported as “inactive”.
For `CP(=O)(Nc1ccccn1)Oc1ccccc1` (stereo not given), the outcome was “inactive”.
For `O=P(Nc1nc2ccc(Cl)cc2s1)(c1ccccc1)c1ccccc1`, the outcome was “inactive”.
In the case of `Cc1cc(C)cc(OP(C)(=O)Nc2cccc(C(F)(F)F)c2)c1` (stereo not given), the outcome is reported as “inactive”.
With `CC(=O)Nc1ccc([As](=O)(O)O)cc1` the outcome was “inactive”.
`O=C(O)c1ccccc1[As](=O)(O)O` was tested, and the outcome was “inactive”.
`COc1ccc(OP(C)(=O)Nc2ccccc2Br)cc1` (stereo not given) was tested, and the outcome was “inactive”.
With `COc1ccccc1OP(C)(=O)Nc1ccc(C)c(C)c1` (stereo not given) the outcome was “inactive”.
`Cc1ccc(NP(=O)(Oc2ccccc2F)Oc2ccccc2F)nc1` was tested, and the outcome was “inactive”.
For `CN(C(=O)Cc1ccc(Cl)c(Cl)c1)[C@H]1CCCC[C@@H]1N1CCCC1`, the outcome was “inactive”.
`Cc1cc(SC(NC(=O)c2ccc(F)cc2)C(Cl)(Cl)Cl)ncn1` (stereo not given) was tested, and the outcome was “inactive”.
For `CCOP(=O)(Nc1ccccc1)OCC`, the outcome was “inactive”.
In the case of `Cc1nc2ccc3ccccc3c2o1.O=[N+]([O-])c1cc([N+](=O)[O-])c(O)c([N+](=O)[O-])c1`, the outcome is reported as “inactive”.
`CP(=O)(Nc1ccc(Cl)cc1Cl)Oc1ccccc1` (stereo not given) was tested, and the outcome was “inactive”.
With `CP(=O)(OCCOc1ccccc1)OCCOc1ccccc1` the outcome was “inactive”.
For `Nc1cccc2ccc([As](=O)(O)O)cc12`, the outcome was “inactive”.
In the case of `CCN(N=Nc1nonc1N)c1nonc1N`, the outcome is reported as “inactive”.
In the case of `CCOC(=O)NC(Sc1ccccc1)C(Cl)(Cl)Cl` (stereo not given), the outcome is reported as “inactive”.
For `Cc1ccc(NP(=O)(Oc2cccc(C)c2)Oc2cccc(C)c2)nc1`, the outcome was “inactive”.
In the case of `c1ccc(-c2nn[nH]n2)c(-c2nn[nH]n2)c1`, the outcome is reported as “inactive”.
In the case of `CCNC(=S)/N=C(\N)N[N+](=O)[O-]`, the outcome is reported as “inactive”.
For `O=C(NC1CCS(=O)(=O)C1)NP(=S)(Oc1ccccc1)Oc1ccccc1` (stereo not given), the outcome was “inactive”.
With `COc1ccc(OP(C)(=O)Nc2ccc(SC(F)(F)F)cc2)cc1` (stereo not given) the outcome was “inactive”.
In the case of `CCOC(=O)c1ccc(NP(C)(=O)Oc2ccc(F)cc2)cc1` (stereo not given), the outcome is reported as “inactive”.
In the case of `CCN(CC)CCCOC(=O)C(O)(c1ccccc1)C1CCCCC1` (stereo not given), the outcome is reported as “inactive”.
`CCC(=O)N1C2C3N(C(=O)CC)C1C1N(C(=O)CC)C(C(N1C(=O)CC)N3C(=O)CC)N2C(=O)CC` was tested, and the outcome was “inactive”.
In the case of `O=C(OC1CN2CCC1CC2)c1ccccc1` (stereo not given), the outcome is reported as “inactive”.
For `Cc1ccc(OP(=O)(Nc2ccccn2)Oc2ccc(C)cc2)cc1`, the outcome was “inactive”.
In the case of `CC(=O)NC(SC(=S)N(CC(C)C)CC(C)C)C(Cl)(Cl)Cl` (stereo not given), the outcome is reported as “inactive”.
For `COC(=O)c1cc2c(s1)N=C(c1ccccc1)N(C)P2(=O)N1CCOCC1` (stereo not given), the outcome was “inactive”.
`O=[N+]([O-])c1cc([N+](=O)[O-])c(OC2CCCCC2O)c([N+](=O)[O-])c1` (stereo not given) was tested, and the outcome was “inactive”.
For `CCCCCOc1ccc(NP(C)(=O)Oc2ccc(Cl)cc2Cl)cc1` (stereo not given), the outcome was “inactive”.
In the case of `CN(C)C(=O)Oc1noc2ccccc12`, the outcome is reported as “inactive”.
For `Cc1ccccc1OP(=O)(Nc1ccccn1)Oc1ccccc1C`, the outcome was “inactive”.
`CP(=O)(Nc1ccccc1)Oc1ccc(F)cc1` (stereo not given) was tested, and the outcome was “inactive”.
With `CCOc1ccc(C2=NCC(CBr)S2)cc1` (stereo not given) the outcome was “inactive”.
In the case of `O=P1(Nc2nc3ccc(Cl)cc3s2)COc2ccccc2O1` (stereo not given), the outcome is reported as “inactive”.
In the case of `CC(C)c1ccc(OP(C)(=O)Nc2ccc(SC(F)(F)F)cc2)cc1` (stereo not given), the outcome is reported as “inactive”.
For `CC(C)(C)C(=O)NC(Sc1ccccc1)C(Cl)(Cl)Cl` (stereo not given), the outcome was “inactive”.
`CP(=O)(Nc1ccccc1F)Oc1ccccc1` (stereo not given) was tested, and the outcome was “inactive”.
For `C[C@H]1OP(=O)(Oc2ccccc2)C[C@@H]2O[C@@H]21` (stereo not given in full), the outcome was “inactive”.
In the case of `C[C@@H]1C=CCP(=O)(Oc2ccccc2)O1` (stereo not given in full), the outcome is reported as “inactive”.
With `O=C(OCCN1CCN(CCOCc2ccccc2)CC1)C(O)(c1ccccc1)c1ccccc1` the outcome was “inactive”.
`O=C(OC1CN2CCC1CC2)c1ccc([N+](=O)[O-])cc1` (stereo not given) was tested, and the outcome was “inactive”.
`CC(=O)c1ccc(N2CC2c2ccncc2)cc1` (stereo not given) was tested, and the outcome was “inactive”.
`CC(=O)Nc1ccc(Oc2c([N+](=O)[O-])cc([N+](=O)[O-])cc2[N+](=O)[O-])cc1` was tested, and the outcome was “inactive”.
For `CC(=O)Nc1ccc([As](=O)(O)O)c(O)c1`, the outcome was “inactive”.
For `COc1ccc2c(c1O)-c1c(O)c(OC)cc3c1[C@H](C2)[N+](C)(C)CC3.O=[N+]([O-])c1cc([N+](=O)[O-])c([O-])c([N+](=O)[O-])c1[O-]`, the outcome was “inactive”.
With `CC(C)C(=O)NC(Sc1ccccc1)C(Cl)(Cl)Cl` (stereo not given) the outcome was “inactive”.
`O=P(Nc1nccs1)(c1ccccc1)c1ccccc1` was tested, and the outcome was “inactive”.
For `CP(=O)(Nc1ccc(SC(F)(F)F)cc1)Oc1ccc(F)cc1` (stereo not given), the outcome was “inactive”.
`c1nnnn1CCn1cnnn1` was tested, and the outcome was “inactive”.
For `CCOP(C)(=S)SCC(=O)NC(C)(CC)C(=O)O` (stereo not given), the outcome was “inactive”.
In the case of `CP(=O)(Nc1ccc2c(c1)OCCO2)Oc1ccccc1` (stereo not given), the outcome is reported as “inactive”.
With `O=P(Nc1ccccn1)(c1ccc(Br)cc1)c1ccc(Br)cc1` the outcome was “inactive”.
For `CN(C)C1(CNC(=O)c2ccc(Cl)c(S(N)(=O)=O)c2)CCCCC1`, the outcome was “inactive”.
With `COc1ccc(OP(C)(=O)Nc2cccc(Br)c2)cc1` (stereo not given) the outcome was “inactive”.
With `COc1ccc(NP(C)(=O)Oc2ccccc2OC)cc1` (stereo not given) the outcome was “inactive”.
`C[C@H]1OP(=O)(Oc2ccccc2)[C@H](O)[C@H](O)[C@H]1N=[N+]=[N-]` (stereo not given in full) was tested, and the outcome was “inactive”.
For `CN(C)CCOC(=O)C(O)(c1ccccc1)C1CCCCC1` (stereo not given), the outcome was “inactive”.
`O=P(Nc1nc2ccccc2s1)(c1ccccc1)c1ccccc1` was tested, and the outcome was “inactive”.
For `O=[N+]([O-])c1cc([N+](=O)[O-])c(NCC2CCS(=O)(=O)C2)c([N+](=O)[O-])c1` (stereo not given), the outcome was “inactive”.
`Cc1cc(-c2cccc3ccccc23)c(C)cn1.O=[N+]([O-])c1cc([N+](=O)[O-])c(O)c([N+](=O)[O-])c1` was tested, and the outcome was “inactive”.
In the case of `O=[As](O)(c1ccccc1)c1ccc(O)cc1`, the outcome is reported as “inactive”.
For `O=[N+]([O-])c1ncn(CCn2cnc([N+](=O)[O-])n2)n1`, the outcome was “inactive”.
With `O=[N+]([O-])c1ccc(OP2(=O)COCCO2)cc1` (stereo not given) the outcome was “inactive”.
`CC(=O)NC(SC(=S)N(C)C)C(Cl)(Cl)Cl` (stereo not given) was tested, and the outcome was “inactive”.
For `O=C(OC1CN2CCC1CC2)c1cccc(Cl)c1` (stereo not given), the outcome was “inactive”.
`C(Cc1nn[nH]n1)Cc1nn[nH]n1` was tested, and the outcome was “inactive”.
`Nc1ccc([As](=O)(O)c2ccc([N+](=O)[O-])cc2)cc1` was tested, and the outcome was “inactive”.
